Literature values, collected in US20160038454A1, “INTRAVENOUS FORMULATIONS OF TRIPTOLIDE COMPOUNDS AS IMMUNOMODULATORS AND ANTICANCER AGENTS” (priority 2013, published 2016).

Tested on: patients with AML
Conditions: given intravenously, cited from earlier work

Substance: triptolide 14-succinate [PG490-88]
- conversion of prodrug to triptolide (clinical): incompletely and erratically converted
- AUC / Cmax profile: relatively flat over time with no intense Cmax
